# This is a selection; strong and weak results do not stand in their true shares. The source made the active and inactive calls.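 Rule for the calls: active = inhibition above about 50% when tested at 10 µM (limit read from the data); inactive = the rest.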
# Amino acid sequences for entries named in this document (tags omitted).
# UniProt P08659, whole entry, looked up: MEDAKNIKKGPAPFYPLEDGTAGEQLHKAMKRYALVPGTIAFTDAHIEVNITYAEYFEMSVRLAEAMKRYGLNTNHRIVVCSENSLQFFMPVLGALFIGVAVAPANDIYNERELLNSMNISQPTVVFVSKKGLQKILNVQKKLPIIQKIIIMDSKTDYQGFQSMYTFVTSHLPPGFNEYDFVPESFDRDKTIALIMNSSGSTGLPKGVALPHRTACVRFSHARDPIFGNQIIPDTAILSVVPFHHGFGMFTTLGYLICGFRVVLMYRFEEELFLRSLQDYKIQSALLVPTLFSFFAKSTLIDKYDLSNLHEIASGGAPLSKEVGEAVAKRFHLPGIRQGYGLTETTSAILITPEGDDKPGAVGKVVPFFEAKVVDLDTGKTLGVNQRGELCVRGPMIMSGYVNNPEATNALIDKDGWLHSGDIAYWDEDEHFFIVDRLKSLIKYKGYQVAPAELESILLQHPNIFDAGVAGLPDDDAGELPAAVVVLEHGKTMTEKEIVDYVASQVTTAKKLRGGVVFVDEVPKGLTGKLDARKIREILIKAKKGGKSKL
# Target: Luciferin 4-monooxygenase (Photinus pyralis) (UniProt P08659)
# Test: inhibition of purified FLuc reporter enzyme – biochemical, luminescence, ATPLite, artefact control for luciferase-based inhibitor screens, primary screen (AID 1006)
# Conditions: ATPLite firefly luciferase biochemical luminescence, 10 min; at 10 µM; stronger effect = higher value
row,SMILES,inhibition
1,CN1CCCCC1COC(=O)C1(O)c2ccccc2CCc2ccccc21 (stereo not drawn),inactive: -0.7%
2,COc1ccccc1OP(C)(=O)Nc1c(C)cccc1C (stereo not drawn),inactive: -6.5%
3,CCCOc1ccc(NP(C)(=O)Oc2ccc(Cl)cc2)cc1 (stereo not drawn),inactive: -4.9%
4,CP(=O)(Nc1ccc(SC(F)(F)F)cc1)Oc1ccccc1 (stereo not drawn),inactive: -0.6%
5,O=[N+]([O-])c1cc([N+](=O)[O-])c(-n2nnc3ccccc32)c([N+](=O)[O-])c1,inactive: -4.7%
6,Cc1nc2ccc3ccccc3c2s1.O=[N+]([O-])c1cc([N+](=O)[O-])c(O)c([N+](=O)[O-])c1,inactive: 0.7%
7,CCOC(=O)c1ccc(NP(C)(=O)Oc2cc(C)cc(C)c2)cc1 (stereo not drawn),inactive: -5.4%
8,Cc1cc(C)cc(OP(C)(=O)Nc2ccc(C)cc2C)c1 (stereo not drawn),inactive: -4.6%
9,Cc1ccc(C)c(NP(C)(=O)Oc2ccccc2)c1 (stereo not drawn),inactive: -4.4%
10,Cc1cc(C)cc(OP(C)(=O)Nc2ccccn2)c1 (stereo not drawn),inactive: -4.3%
11,CP(=O)(Nc1cccc(Br)c1)Oc1ccccc1 (stereo not drawn),inactive: -0.9%
12,CC1=NCCc2c1[nH]c1ccccc21.O=[N+]([O-])c1cc([N+](=O)[O-])c(O)c([N+](=O)[O-])c1,inactive: -4.3%
13,O=[N+]([O-])c1ccc2c(c1)C=Nc1ccccc1O2,inactive: -8.2%
14,Cc1cccc(C)c1OP(C)(N)=O (stereo not drawn),inactive: -2.2%
15,CC(C)(C)c1ccc(OP(C)(=O)Nc2ccc(SC(F)(F)F)cc2)cc1 (stereo not drawn),inactive: -6.6%
16,Cc1ccc(NP(C)(=O)Oc2ccccc2)c(C)c1 (stereo not drawn),inactive: 1.9%
17,COc1ccccc1OP(C)(=O)Nc1ccc(C)cc1 (stereo not drawn),inactive: -5.3%
18,CCOC(=O)c1ccc(NP(C)(=O)Oc2ccccc2)cc1 (stereo not drawn),inactive: -1.5%
19,Cc1cc(C)cc(OP(C)(N)=O)c1 (stereo not drawn),inactive: 2.6%
20,COc1ccc(OP(C)(=O)Nc2cccc(F)c2)cc1 (stereo not drawn),inactive: -2.3%
21,COc1ccccc1OP(C)(=O)Nc1cc(Cl)ccc1C (stereo not drawn),inactive: -2%
22,CCN(CC)CCCOC(=O)C(O)(c1ccccc1)c1ccccc1,inactive: -2.8%
23,CP(=O)(Oc1ccccc1)OC(c1ccccc1)C(F)(F)F (stereo not drawn),inactive: -5.1%
24,Cc1cccc(C)c1OP(C)(=O)Nc1ccc(SC(F)(F)F)cc1 (stereo not drawn),inactive: -6.2%
25,Cc1cc(C)cc(OP(C)(=O)Nc2ccc(SC(F)(F)F)cc2)c1 (stereo not drawn),inactive: -5.9%
26,CP(=O)(NC(=O)Nc1ccccc1)Oc1ccccc1 (stereo not drawn),inactive: -6.5%
27,CCOC(=O)c1ccc(NP(C)(=O)Oc2ccc(OC)cc2)cc1 (stereo not drawn),inactive: -8%
28,CCOP(C)(=S)SCC(=O)NC(C)C(=O)O (stereo not drawn),inactive: -1.7%

# Reference: PubChem BioAssay AID1006 (Sanford-Burnham Center for Chemical Genomics, 2008)
